Patent US20210040194A1 (AstraZeneca / MedImmune, published 2021)

By UniProt entry, the sequences of proteins in these tests, tags left out. Chains listed by the source or under a name are the forms on record and can include a tag or linker. Residues count along the entry.
UniProt P15692, other isoform, or with tags, fused parts or gaps limits assumed: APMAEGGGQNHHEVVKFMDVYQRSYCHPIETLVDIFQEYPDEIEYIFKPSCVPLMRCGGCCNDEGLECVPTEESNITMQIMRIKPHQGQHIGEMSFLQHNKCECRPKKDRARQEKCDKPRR
UniProt P15692, 207-395 limits assumed: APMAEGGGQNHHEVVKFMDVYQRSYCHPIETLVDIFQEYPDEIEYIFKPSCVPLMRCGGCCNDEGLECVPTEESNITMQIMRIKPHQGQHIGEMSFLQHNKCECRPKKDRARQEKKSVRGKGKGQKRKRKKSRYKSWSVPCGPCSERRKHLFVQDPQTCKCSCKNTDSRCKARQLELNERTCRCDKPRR

Tests used:
VEGF121 = molecular target: T1, VEGF121 (human, UniProt P15692-9 27-147); assay: ELISA on plate-coated VEGF121, detection with goat anti-human IgG HRP, OD 450 nm
T1 construct: The method names only 'human VEGF' as coat

human VEGF189 = human VEGF189 (human, UniProt P15692-2 27-215); assay: ELISA, coated human VEGF189, anti-human IgG HRP detection

Row | EC50 (VEGF121) [pM] | EC50 (human VEGF189) [pM] | Binder
1 | 53 | – | B20-4.1 (antibody, V domains shown) VH: EVQLVESGGGLVQPGGSLRLSCAASGFSINGSWIFWVRQAPGKGLEWVGAIWPFGGYTHYADSVKGRFTISADTSKNTAYLQMNSLRAEDTAVYYCARWGHSTSPWAMDYWGQGTLV VL: DIQMTQSPSSLSASVGDRVTITCRASQVIRRSLAWYQQKPGKAPKLLIYAASNLASGVPSRFSGSGSGTDFTLTISSLQPEDFATYYCQQSNTSPLTFGQGTKVEIK
2 | – | 9.6 | G6-31 (antibody, V domains shown) VH: EVQLVESGGGLVQPGGSLRLSCAASGFTISDYWIHWVRQAPGKGLEWVAGITPAGGYTRYADSVKGRFTISADTSKNTAYLQMRSLRAEDTAVYYCARFVFFLPYAMDYWGQGTLVTVSS VL: DIQMTQSPSSLSASVGDRVTITCRASQDVSTAVAWYQQKPGKAPKLLIYSASFLYSGVPSRFSGSGSGTDFTLTISSLQPEDAATYYCQQGYGAPFTFGQGTKVEIK
